Measurements from patent US20150258059A1, “ANTIMICROBIAL AND RADIOPROTECTIVE COMPOUNDS” (BioDiem, Ltd, priority 2001, published 2015).
Values after ≈ are worked out from the molar mass of the structure shown. Where two headings read alike, the source gives them in different places.

Columns and labels:
Assay type in all cases: cell-based
[1] = test system: E. faecalis-clinical isolate 2; experiment: microbe, parasite or virus in culture
Streptococcus pyogenes = experiment: Agar diffusion bioassay (well and disk); conditions: any concentration from 1 to 512 μg/mL; bound to agar
Description: (§1) Both well diffusion and disk diffusion assays were attempted.

[2] = test system: susceptible strains of S. aureus; experiment: Agar diffusion bioassay (well and disk); conditions: any concentration from 1 to 512 μg/mL; bound to agar
Description: as §1

C/C(=C\c1ccc2c(c1)OCO2)[N+](=O)[O-] [Compound (1)]
MMC [1]: 32 µg/mL | MMC ([1]; 35° C., 24 hours): 32 µg/mL | MIC ([1]; Enterococcus faecalis, 35° C., 24 hours): 32 µg/mL (≈ 154 µM) | zones of inhibition (Streptococcus pyogenes): no zones of inhibition were produced | zones of inhibition [2]: no zones of inhibition were produced
